This is an account of results in patent US8889678B2, “Acyl guanidine derivatives modulating the hedgehog protein signaling pathway” (Centre National de la Recherche Scientifique, priority 2009, dated 2014).

The chains behind the UniProt entries cited, without tags or fusion partners. Residues count along the entry.
UniProt P56726, 33-793: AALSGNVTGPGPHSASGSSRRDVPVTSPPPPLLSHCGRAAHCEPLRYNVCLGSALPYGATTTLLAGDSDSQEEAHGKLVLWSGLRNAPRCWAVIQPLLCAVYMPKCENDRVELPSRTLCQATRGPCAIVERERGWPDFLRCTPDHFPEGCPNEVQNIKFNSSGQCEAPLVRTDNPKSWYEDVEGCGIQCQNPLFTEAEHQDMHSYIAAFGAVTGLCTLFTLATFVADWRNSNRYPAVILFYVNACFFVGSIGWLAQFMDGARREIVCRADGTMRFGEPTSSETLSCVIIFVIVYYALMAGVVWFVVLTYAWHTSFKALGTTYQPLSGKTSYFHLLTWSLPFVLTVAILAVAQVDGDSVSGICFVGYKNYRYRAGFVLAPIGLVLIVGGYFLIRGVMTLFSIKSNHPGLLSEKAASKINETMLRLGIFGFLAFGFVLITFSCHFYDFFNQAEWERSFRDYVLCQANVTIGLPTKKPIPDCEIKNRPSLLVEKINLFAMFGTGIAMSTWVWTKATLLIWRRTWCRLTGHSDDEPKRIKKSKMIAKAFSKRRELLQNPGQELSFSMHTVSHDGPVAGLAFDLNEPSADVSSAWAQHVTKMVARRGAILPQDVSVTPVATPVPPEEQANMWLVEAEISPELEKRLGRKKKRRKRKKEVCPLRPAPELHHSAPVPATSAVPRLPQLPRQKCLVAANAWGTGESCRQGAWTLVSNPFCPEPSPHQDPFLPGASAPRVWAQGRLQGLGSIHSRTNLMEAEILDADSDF

The experiment concerns the target T1, mouse Smoothened receptor (Mus musculus, UniProt P56726).
T1 construct: expressed in transfected cells; host or cells: HEK293 cells, transiently transfected with Fugene6
Nature of the experiment: Competition with bodipycyclopamine binding on HEK293 cells transfected with mouse Smoothened. Particulars: 5 nM bodipycyclopamine, 2 hours at 37° C., read-out: IC50 (concentration which inhibits 50% of the bodipycyclopamine binding).

In the case of cyclopamine [reference compound], the IC50 is 30 to 300 nM.
